The record followed here is US12569471B2, “Method of treatment of CNS disorders” (Supernus Pharmaceuticals, Inc., priority 2009, dated 2026).

The chains behind the UniProt entries cited, without tags or fusion partners. Residues count along the entry.
UniProt A0ACM8Q262, 1-400: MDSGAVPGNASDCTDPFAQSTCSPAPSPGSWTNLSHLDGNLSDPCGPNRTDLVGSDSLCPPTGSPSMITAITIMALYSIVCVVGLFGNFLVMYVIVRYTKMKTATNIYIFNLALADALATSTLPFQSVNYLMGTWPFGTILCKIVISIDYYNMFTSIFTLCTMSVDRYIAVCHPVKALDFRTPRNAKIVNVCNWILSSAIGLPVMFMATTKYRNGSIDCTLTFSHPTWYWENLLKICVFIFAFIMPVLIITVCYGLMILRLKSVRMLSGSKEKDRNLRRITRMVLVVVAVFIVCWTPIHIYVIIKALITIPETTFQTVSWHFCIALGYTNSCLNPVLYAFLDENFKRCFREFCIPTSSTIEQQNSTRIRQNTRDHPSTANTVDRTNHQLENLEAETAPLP

In the assay the target is μ-opioid receptors in the guinea pig ileum (Cavia porcellus, UniProt A0ACM8Q262). In words: μ-opioid receptor bioassay, test for antagonist activity (DAMGO-induced decrease in twitch contraction amplitude). As to conditions: mean, n=2.

Turning to `C=CCN1CC[C@]23c4c5ccc(O)c4O[C@H]2C(=O)CC[C@@]3(O)[C@H]1C5` [Naloxone], the “antagonist activity: response to DAMGO (1.0E−07M) in presence of compound” value reads like this: (compound 1.0E−07 M) −5% of the control response to DAMGO; (compound 2.0E−08 M) 40% of the control response to DAMGO; (compound 5.0E−09 M) 88% of the control response to DAMGO.
